Biological target: T1, mouse IL1-R1/Fc (mouse, UniProt P13504 20-338, limits assumed)
T1 construct: Coupled to CM5 sensor chips for Biacore 3000; also called IL-1 Receptor 1; IL-1RI protein; not shown: Fc part
T1 sequence (looked up): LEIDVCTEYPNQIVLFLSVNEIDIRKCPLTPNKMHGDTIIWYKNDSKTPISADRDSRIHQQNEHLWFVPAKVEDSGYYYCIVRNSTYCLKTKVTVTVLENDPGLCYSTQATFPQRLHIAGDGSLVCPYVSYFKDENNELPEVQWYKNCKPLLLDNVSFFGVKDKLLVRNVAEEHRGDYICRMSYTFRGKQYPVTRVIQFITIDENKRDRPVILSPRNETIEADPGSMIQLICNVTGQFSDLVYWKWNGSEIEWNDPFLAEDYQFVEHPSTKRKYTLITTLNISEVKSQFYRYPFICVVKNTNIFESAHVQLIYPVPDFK
Assay: SPR (Biacore 3000); mouse IL1-R1/Fc coupled to a CM5 chip; analyte is uncleaved CII-H6-GrB-TripK-IL-1ra refolded by dialysis; analyte concentration not given
Protocol: The ability of the refolded protein to bind to IL-1 Receptor 1 was analyzed on a Biacore 3000 (Biacore, Uppsala, Sweden) where mouse IL1-R1/Fc was coupled to CM5 sensor chips and binding of soluble TripK-IL-1ra to IL-1RI protein was measured. Results of uncleaved CII-H6-GrB-TripK-IL-1ra refolding by dialysis are shown in FIG. 2 and uncleaved CII-H6-GrB-TripK-IL-1ra on-column NiNTA refolding is shown in FIG. 3. The cleavage and purification assays produced the trimeric IL-1Ra compounds of SEQ ID NOs: 47-54.

B1: CII-H6-GrB-GG-TripK-IL-1ra (ligand)
chain: MVRANKRNEALRIESALLNKIAMLGTEKTAEGGSHHHHHHGSIEPDGGEGPTQKPKKIVNAKKDVVNTKMFEELKSRLDTLAQEVALLKEQQALQTVSLKRPSGRKSSKMQAFRIWDVNQKTFYLRNNQLVAGYLQGPNVNLEEKIDVVPIEPHALFLGIHGGKMCLSCVKSGDETRLQLEAVNITDLSENRKQDKRFAFIRSDSGPTTSFESAACPGWFLCTAMEADQPVSLTNMPDEGVMVTKFYFQEDE
notes: also called CII-H6-GrB-TripK-IL-1ra; CII-H6-GrB-TripK-IL-1Ra
- binding result: binds
